Usually pIC50 stands for −log10 of the IC50, conventionally taken in molar units.

Drawing on PubChem BioAssay AID540269 (Sanford-Burnham Center for Chemical Genomics, 2011), this text covers IC50 for one molecule.

This test addresses glucose-6-phosphate dehydrogenase-6-phosphogluconolactonase (Plasmodium falciparum 3D7). The test can be described thus: inhibition of P. falciparum G6PD activity – biochemical, kinetic NADPH detection, orthogonal assay, dose response (AID 540269). The conditions noted are these: purified PfG6PD-6PGL.

pIC50: −log10 of the molar value.

With `CNc1nc(-c2ccccc2)[n+](-c2ccc(C)cc2)s1`, the negative logarithm of the IC50 (pIC50) is 4.84.
